Measured values from ChEMBL document CHEMBL5252527, “An Update on Poly(ADP-ribose)polymerase-1 (PARP-1) Inhibitors: Opportunities and Challenges in Cancer Therapy” (J Med Chem, 2016).

Species: Homo sapiens
Assay: Selectivity index, ratio of IC50 of human PARP-1 to IC50 of human PARP-2

How did the Ratio IC50 turn out when Cn1cccc1/C=C1\C(=O)NC(=O)c2ccccc21 was run?
The Ratio IC50 was 80.
